The chains behind the UniProt entries cited, without tags or fusion partners. Residues count along the entry.
UniProt P00533, 25-1210 limits assumed: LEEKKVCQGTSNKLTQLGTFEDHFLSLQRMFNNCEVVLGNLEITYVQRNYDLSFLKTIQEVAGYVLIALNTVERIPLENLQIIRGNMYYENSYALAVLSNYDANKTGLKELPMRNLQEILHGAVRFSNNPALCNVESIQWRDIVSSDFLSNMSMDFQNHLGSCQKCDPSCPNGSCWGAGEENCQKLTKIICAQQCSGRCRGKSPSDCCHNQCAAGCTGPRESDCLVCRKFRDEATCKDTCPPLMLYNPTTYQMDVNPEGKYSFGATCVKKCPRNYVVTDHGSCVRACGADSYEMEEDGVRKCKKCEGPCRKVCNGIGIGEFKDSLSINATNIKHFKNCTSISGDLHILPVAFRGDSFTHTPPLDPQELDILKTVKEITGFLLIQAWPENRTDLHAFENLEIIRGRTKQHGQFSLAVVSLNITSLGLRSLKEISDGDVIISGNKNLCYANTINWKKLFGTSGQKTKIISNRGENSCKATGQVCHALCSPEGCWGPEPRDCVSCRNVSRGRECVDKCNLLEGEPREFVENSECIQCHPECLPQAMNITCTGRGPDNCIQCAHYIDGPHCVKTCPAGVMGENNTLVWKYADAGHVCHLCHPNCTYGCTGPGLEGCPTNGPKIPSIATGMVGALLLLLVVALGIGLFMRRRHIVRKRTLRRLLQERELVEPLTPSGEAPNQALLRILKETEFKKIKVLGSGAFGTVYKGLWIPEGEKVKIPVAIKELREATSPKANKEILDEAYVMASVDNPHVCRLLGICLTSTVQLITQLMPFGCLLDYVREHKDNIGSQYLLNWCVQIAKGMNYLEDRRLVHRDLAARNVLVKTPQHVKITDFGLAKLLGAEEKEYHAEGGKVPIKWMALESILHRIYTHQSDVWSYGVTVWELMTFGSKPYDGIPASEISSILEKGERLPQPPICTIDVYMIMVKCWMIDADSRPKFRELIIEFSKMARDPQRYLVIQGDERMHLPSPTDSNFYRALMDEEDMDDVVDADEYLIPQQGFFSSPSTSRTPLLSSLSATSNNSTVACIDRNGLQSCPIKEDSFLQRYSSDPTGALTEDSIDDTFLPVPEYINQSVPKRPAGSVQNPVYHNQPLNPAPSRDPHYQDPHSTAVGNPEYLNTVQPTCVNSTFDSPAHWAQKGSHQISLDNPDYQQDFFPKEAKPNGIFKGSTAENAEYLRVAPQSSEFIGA
UniProt P04626, 23-1255 limits assumed: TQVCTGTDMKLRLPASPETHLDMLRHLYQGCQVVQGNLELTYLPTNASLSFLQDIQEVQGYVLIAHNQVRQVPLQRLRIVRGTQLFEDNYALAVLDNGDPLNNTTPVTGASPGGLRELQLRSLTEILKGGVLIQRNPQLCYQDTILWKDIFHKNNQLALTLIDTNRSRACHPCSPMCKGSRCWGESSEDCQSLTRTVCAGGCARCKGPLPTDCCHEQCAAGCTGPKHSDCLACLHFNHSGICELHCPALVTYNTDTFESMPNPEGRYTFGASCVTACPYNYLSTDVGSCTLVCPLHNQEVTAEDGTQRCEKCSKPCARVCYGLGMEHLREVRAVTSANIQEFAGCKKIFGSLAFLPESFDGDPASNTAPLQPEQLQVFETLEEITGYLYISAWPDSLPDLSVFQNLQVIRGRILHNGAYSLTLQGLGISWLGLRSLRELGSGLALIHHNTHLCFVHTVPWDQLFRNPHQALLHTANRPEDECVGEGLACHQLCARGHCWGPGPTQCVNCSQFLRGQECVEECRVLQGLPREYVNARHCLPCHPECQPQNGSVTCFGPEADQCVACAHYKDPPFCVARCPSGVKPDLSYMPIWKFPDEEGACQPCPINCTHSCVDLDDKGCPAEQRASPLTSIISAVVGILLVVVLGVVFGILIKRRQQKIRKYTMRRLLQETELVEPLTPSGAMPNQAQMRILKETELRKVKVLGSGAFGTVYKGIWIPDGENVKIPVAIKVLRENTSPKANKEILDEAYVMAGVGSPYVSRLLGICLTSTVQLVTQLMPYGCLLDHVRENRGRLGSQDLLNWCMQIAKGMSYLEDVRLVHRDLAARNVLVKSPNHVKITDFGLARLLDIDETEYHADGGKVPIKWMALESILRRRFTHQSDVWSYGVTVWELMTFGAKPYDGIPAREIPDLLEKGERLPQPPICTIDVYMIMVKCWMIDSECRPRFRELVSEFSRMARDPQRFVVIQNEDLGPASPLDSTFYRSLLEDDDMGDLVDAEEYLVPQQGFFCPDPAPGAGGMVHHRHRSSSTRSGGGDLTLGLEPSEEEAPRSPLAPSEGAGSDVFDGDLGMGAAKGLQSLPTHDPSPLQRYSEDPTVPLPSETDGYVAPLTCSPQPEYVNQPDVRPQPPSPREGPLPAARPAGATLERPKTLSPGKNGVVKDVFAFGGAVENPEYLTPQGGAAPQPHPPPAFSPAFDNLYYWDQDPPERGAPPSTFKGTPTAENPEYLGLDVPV
UniProt P09619, 33-1106 limits assumed: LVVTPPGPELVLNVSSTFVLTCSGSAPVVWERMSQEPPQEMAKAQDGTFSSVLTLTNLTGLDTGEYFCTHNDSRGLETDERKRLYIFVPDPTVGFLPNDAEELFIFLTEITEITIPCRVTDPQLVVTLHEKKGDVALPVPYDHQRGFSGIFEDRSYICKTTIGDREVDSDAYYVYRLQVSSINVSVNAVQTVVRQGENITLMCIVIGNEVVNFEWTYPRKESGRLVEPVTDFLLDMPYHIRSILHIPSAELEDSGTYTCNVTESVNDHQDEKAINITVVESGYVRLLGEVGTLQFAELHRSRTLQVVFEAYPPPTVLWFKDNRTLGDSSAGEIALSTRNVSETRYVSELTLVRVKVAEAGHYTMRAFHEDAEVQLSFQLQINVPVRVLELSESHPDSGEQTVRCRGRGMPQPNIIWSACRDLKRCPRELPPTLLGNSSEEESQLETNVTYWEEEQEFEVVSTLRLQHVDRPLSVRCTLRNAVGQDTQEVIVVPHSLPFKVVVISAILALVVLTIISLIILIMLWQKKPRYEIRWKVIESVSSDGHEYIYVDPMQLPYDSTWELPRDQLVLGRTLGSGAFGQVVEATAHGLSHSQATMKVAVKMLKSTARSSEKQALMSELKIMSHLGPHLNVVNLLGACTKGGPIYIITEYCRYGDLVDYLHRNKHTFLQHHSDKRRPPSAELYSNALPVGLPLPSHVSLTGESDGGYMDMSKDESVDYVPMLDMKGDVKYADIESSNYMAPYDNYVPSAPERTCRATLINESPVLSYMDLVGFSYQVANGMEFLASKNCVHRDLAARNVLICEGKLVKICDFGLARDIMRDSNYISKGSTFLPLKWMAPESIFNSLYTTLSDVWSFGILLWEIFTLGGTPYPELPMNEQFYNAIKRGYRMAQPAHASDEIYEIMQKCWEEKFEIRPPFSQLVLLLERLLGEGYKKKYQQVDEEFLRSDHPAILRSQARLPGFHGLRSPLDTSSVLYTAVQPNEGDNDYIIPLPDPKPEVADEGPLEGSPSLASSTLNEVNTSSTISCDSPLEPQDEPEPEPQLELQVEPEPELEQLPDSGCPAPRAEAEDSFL

According to US6596878B2, “Methods and compositions for inhibiting cell proliferative disorders” (Yissum Research & Development Company of the Hebrew …, priority 1994, dated 2003):

Legend:
human EGF receptor = human EGF receptor (Homo sapiens, UniProt P00533); assay: EGF-receptor whole cell kinase assay (EGFR-3T3); type: cell-based
HER2 = HER2 (Homo sapiens, UniProt P04626); assay: HER2-BT474 whole cell kinase ELISA; type: cell-based
A431 cells = assay: A431 growth assay (sulphorhodamine B); conditions: read-out: Estimated IC50 Growth Assays A431 cells, Table V, 4 days, SRB
SKBR3 cells = assay: SKBR3 growth assay (sulphorhodamine B)
SKOV3 cells = assay: SKOV3 soft agar colony growth assay; conditions: read-out: Estimated IC50 Growth Assays SKOV3 cells, Table V, colony growth 2 weeks
PDGFR-β = PDGFR-β (Homo sapiens, UniProt P09619); assay: PDGFR-β cellular kinase assay (U1242 cells); conditions: read-out: Estimated IC50 Cellular Kinase Assays PDGFR-β, Table V
[1] = read-out: Estimated IC50 Cellular Kinase Assays HER2 (BT474), Table V

Question: With `Cc1ccc2ncnc(Nc3cccc(C(F)(F)F)c3)c2c1` as the molecule, how does the pIC50 (human EGF receptor; read-out: EGFR, Table III, cellular kinase assay, class symbol, tested form: free base) read?
Answer: The pIC50 was over 4.30.

Question: What about the pIC50 (HER2; read-out: Estimated IC50 Cellular Kinase Assays HER2 (BT474), Table V, tested form: free base) of the same molecule?
Answer: Its pIC50 is under 4.30.

Question: And the pIC50 (HER2; read-out: HER2, Table III, cellular kinase assay, class symbol, tested form: free base)?
Answer: Its pIC50 is under 4.30.

Question: How did the pIC50 (A431 cells; tested form: free base) turn out when `COc1cc2ncnc(Nc3cccc(Cl)c3)c2cc1OC` was run?
Answer: The pIC50 was 5.00.

Question: What does the source list for `CC(=O)c1c(-c2ccccc2)[n+]([O-])c2ccccc2[n+]1[O-]`?
Answer: inhibition of growth of cells characterized by over-activity of HER2 (SKBR3 cells; cells characterized by over-activity of HER2): inhibited growth; pIC50 (SKBR3 cells; read-out: Estimated IC50 Growth Assays SKBR3 cells, Table V, 4 days, SRB): 4.11; pIC50 (human EGF receptor; read-out: EGFR, Table II, cellular kinase assay, class symbol): < 4.30; pIC50 (human EGF receptor; read-out: Estimated IC50 Cellular Kinase Assays EGFR (EGF-3T3), Table V): < 4.00; pIC50 (HER2; [1]): 4.70; pIC50 (HER2; read-out: HER2, Table II, cellular kinase assay, class symbol): > 4.30; inhibition of HER2 activity (HER2; significantly inhibit = IC50 less than 50 μM): selectively inhibited; pIC50 (SKOV3 cells): 4.07; pIC50 (PDGFR-β): < 4.00

Question: How did the pIC50 (human EGF receptor; read-out: EGFR, Table III, cellular kinase assay, class symbol, tested form: free base (made from P12a with Na2CO3)) turn out when `Cc1ccc2ncnc(Nc3cccc(Cl)c3)c2c1` [Compound P12a] was run?
Answer: The pIC50 was over 4.30.

Question: And the pIC50 (HER2; read-out: Estimated IC50 Cellular Kinase Assays HER2 (BT474), Table V, tested form: free base (made from P12a with Na2CO3))?
Answer: Its pIC50 is 5.17.

Question: What about the pIC50 (HER2; read-out: HER2, Table III, cellular kinase assay, class symbol, tested form: free base (made from P12a with Na2CO3)) of the same molecule?
Answer: Its pIC50 is over 4.30.

Question: What about the pIC50 (A431 cells; tested form: free base (made from P12a with Na2CO3)) of the same molecule?
Answer: Its pIC50 is 4.70.

Question: `Clc1cccc(Nc2ncnc3ccccc23)c1` was tested. Which pIC50 (human EGF receptor; read-out: EGFR, Table III, cellular kinase assay, class symbol) did it give?
Answer: The pIC50 was over 4.30.

Question: And the pIC50 (human EGF receptor; read-out: EGFR, Table III, cellular kinase assay, class symbol, tested form: hydrochloride)?
Answer: The pIC50 was over 4.30.

Question: And the pIC50 (HER2; [1])?
Answer: Its pIC50 is 4.47.

Question: What about the pIC50 (HER2; read-out: Estimated IC50 Cellular Kinase Assays HER2 (BT474), Table V, tested form: hydrochloride) of the same molecule?
Answer: Its pIC50 is 4.39.

Question: And the pIC50 (HER2; read-out: HER2, Table III, cellular kinase assay, class symbol)?
Answer: The pIC50 was over 4.30.

Question: And the pIC50 (HER2; read-out: HER2, Table III, cellular kinase assay, class symbol, tested form: hydrochloride)?
Answer: The pIC50 was over 4.30.

Question: And the pIC50 (A431 cells)?
Answer: Its pIC50 is 4.70.

pIC50: −log10 of the molar value. Like-named read-outs stand apart in the source and are kept apart here.
